Data from patent WO1994029351A2.

How the values were obtained:
[1] = target: FcγRIII on human peripheral blood mononuclear effector cells (human) (UniProt P08637); assay: cell-based or functional assay
[2] = target: chimeric L243 human lgG4 (human) [IgG part: P01861]; assay: FITC C1q on antibody-coated JY cells, FACS; equilibrium dissociation constant after Krause et al.

| Substance | ng/ml antibody necessary for half maximal cell killing in ADCC [1] | Kd [2] |
| --- | --- | --- |
| chimeric L243 human lgG1 wild type (from UniProt P01857 1-330; P01834 1-107) (antibody) | 5 ng/mL | – |
| Purified human C1q (Sigma UK) (from UniProt P02745 23-245; P02746 28-253; P02747 29-245) | – | 120 nM |
